Test system: mouse
Test: Mouse tail-flick test (TF), tail-dip into hot water
Settings: from TF-ED50 and WT-ED50, i.v.; high value signals low brain penetration

With CN(C(=O)Cc1cccc2occc12)[C@H]1CC[C@@]2(CCCO2)C[C@@H]1N1CCCC1 the “BPI (Brain Penetration Index)” value was “lower than 5”.
